Consider six compounds from patent US20170360875A1 (priority 2014, published 2017).

The subject of one test is FcγIIa (R131 allele). The experiment in a line: Reverse ELISA: inhibition of FcR binding to PAP immune complex, FcγIIa (R131 allele). To be noted: PAP pre-incubated 1 h with peptide; no inhibitor 1.599. (In general: ELISA stands for enzyme-linked immunosorbent assay.)
Consider “Ala-Pro-Pro-Cys-Ala-Phe-His-Leu-Gly-Glu-Leu-Val-Trp-Cys-Thr”, for which the “OD405 FcγIIa (R131 allele)” value was found to be 0.605.
On the same count and under the same terms, for “Ala-Pro-Pro-Cys-Ala-Trp-His-Leu-Gly-Glu-Leu-Val-Trp-Cys-Thr” the value was 0.658; for “Asp-Cys-Ala-Phe-His-Leu-Gly-Glu-Leu-Val-Trp-Cys-Thr”, 0.660.
Consider `CC(C)C[C@@H]1NC(=O)[C@H](Cc2c[nH]cn2)NC(=O)[C@H](Cc2c[nH]c3ccccc23)NC(=O)[C@H](C)NC(=O)[C@@H](NC(=O)[C@H](CC(=O)O)NC(=O)[C@@H]2CCCN2C(=O)[C@@H]2CCCN2C(=O)[C@H](C)N)CSSC[C@@H](C(=O)N[C@H](C(=O)O)[C@@H](C)O)NC(=O)[C@H](Cc2c[nH]c3ccccc23)NC(=O)[C@H](C(C)C)NC(=O)[C@H](CC(C)C)NC(=O)[C@H](CCC(=O)O)NC(=O)CNC1=O` [SEQ ID NO:20], for which the “OD405 FcγIIa (R131 allele)” value stood at 0.509.
Same read-out and setting: the same measure for “Ala-Pro-Pro-Cys-Ala-Arg-His-Leu-Gly-Glu-Leu-Val-Trp-Cys-Thr”: 0.956; for “Asp-Cys-Ala-Trp-His-Leu-Gly-Glu-Leu-Val-Trp-Cys-Thr”: 0.561.

The test is the same for the next values; noted with them: overall across FcγIIa, FcγIIb and FcγIIIa of Table 2.
Turning to `CC(C)C[C@@H]1NC(=O)[C@H](Cc2c[nH]cn2)NC(=O)[C@H](Cc2c[nH]c3ccccc23)NC(=O)[C@H](C)NC(=O)[C@@H](NC(=O)[C@H](CC(=O)O)NC(=O)[C@@H]2CCCN2C(=O)[C@@H]2CCCN2C(=O)[C@H](C)N)CSSC[C@@H](C(=O)N[C@H](C(=O)O)[C@@H](C)O)NC(=O)[C@H](Cc2c[nH]c3ccccc23)NC(=O)[C@H](C(C)C)NC(=O)[C@H](CC(C)C)NC(=O)[C@H](CCC(=O)O)NC(=O)CNC1=O` [SEQ ID NO:20], the “overall inhibition of FcR binding to PAP (rank in words)” value is “greatest overall inhibition of FcR binding to PAP”.
